# Measured affinities in a library of Ab-14 heavy chain variants

The measurements come from Engelhart et al. 2022 (doi:10.1038/s41597-022-01779-4) through the FLAb antibody collection.

Target peptide (SARS-CoV-2 spike, HR2 region): PDVDLGDISGINAS

Parent scFv Ab-14: VH joined to VL by a 15-residue (Gly4Ser)3 linker. Changes lie in the heavy chain CDRs alone.
VH: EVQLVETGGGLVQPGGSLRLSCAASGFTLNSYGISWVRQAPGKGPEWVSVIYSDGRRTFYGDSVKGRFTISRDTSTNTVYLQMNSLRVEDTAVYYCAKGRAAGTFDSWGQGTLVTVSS
VL: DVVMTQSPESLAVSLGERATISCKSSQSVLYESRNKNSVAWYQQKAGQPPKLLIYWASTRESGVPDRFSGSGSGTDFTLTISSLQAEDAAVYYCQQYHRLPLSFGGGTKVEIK

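In library AAYL49, one, two or three CDR residues were substituted; doubles and triples were drawn at random. The assay is AlphaSeq: two haploid yeast populations carry antibody and antigen on their surface. The frequency of each diploid, read from paired DNA barcodes, reflects how well the two displayed proteins bind. A regression on co-assayed BCL2-family reference pairs converts the normalised counts of each replicate to an apparent Kd. Mating was done three times.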

Sequences are complete VH domains.
Numbers give log10(Kd / nM), so 0 is 1 nM and 3 is 1 µM. Smaller is tighter.
Averages over replicates are reported, and they cover detected replicates only.
A pair that was not seen in that replicate is written "nd"; this usually means weak binding, but a binder can also be missed.
In this assay the parent's reference entry averaged 0.65; its copy inside this library read 4.11 (one replicate of three).
Three control strains display no target. For library AAYL49, 15% of the pairings with them gave a signal, with a median of 4.06 and one signal in twenty below 2.83, so weak values seen in few replicates may be background. Also given: how often the same scFv was detected with the empty control strains, with their mean in brackets.

VH	replicates, log10 nM	mean, log10 nM	control signals
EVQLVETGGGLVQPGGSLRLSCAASGQTLNSYGISWVRQAPGKGPEWVSVIYSDGRRTFYGDIVKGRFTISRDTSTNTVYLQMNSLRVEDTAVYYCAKGKAAGTFDSWGQGTLVTVSS	5.01 / nd / nd	5.01	1 of 9 (4.05)
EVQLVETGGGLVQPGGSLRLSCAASGFMLNSYGISWVRQAPGKGPEWVSVIYSDGRRTFYGDSVKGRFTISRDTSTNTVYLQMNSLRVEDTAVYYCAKGFAAGTFMSWGQGTLVTVSS	nd / nd / nd	nd	0 of 9
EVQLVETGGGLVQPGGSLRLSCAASHFTLNSYGISWVRQAPGKGPEWVSVIYSDYRRTFYGDSVKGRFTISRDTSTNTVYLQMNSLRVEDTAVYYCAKGRAAGTFDYWGQGTLVTVSS	nd / nd / nd	nd	2 of 9 (4.21)
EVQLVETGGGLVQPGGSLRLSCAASGFTLHSYGISWVRQAPGKGPEWVSVIYSVGRRTFYGDSWKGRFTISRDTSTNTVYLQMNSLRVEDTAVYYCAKGRAAGTFDSWGQGTLVTVSS	nd / nd / nd	nd	0 of 9
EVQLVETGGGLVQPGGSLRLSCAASGFTLNSYGRSWVRQAPGKGPEWVSVIRSDGRRTFHGDSVKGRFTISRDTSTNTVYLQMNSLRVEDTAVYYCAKGRAAGTFDSWGQGTLVTVSS	4.20 / 5.30 / 3.60	4.37	4 of 9 (4.51)
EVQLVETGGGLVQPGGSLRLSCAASGFTVNSYGISWVRQAPGKGPEWVSVIVSDGRRTFYMDSVKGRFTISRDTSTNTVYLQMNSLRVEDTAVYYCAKGRAAGTFDSWGQGTLVTVSS	nd / nd / 5.69	5.69	1 of 9 (5.29)
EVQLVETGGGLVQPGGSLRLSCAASGFTLNSYGISWVRQAPGKGPEWVSVSYSDGRRTFYGDSVKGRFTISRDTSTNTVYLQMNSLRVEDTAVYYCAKGRAFGTFDSWGQGTLVTVSS	nd / nd / nd	nd	3 of 9 (3.15)
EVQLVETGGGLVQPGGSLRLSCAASGFTLNSYGISWVRQAPGKGPEWVSVIYSDGRRTFYGDSVKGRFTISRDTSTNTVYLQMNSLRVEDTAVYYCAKCRAAGHFMSWGQGTLVTVSS	0.86 / 0.94 / 0.79	0.86	1 of 9 (4.56)
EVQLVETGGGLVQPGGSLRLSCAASGFTLNSYGIIWVRQAPGKGPEWVSVIYSDNRRTRYGDSVKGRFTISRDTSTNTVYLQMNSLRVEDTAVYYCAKGRAAGTFDSWGQGTLVTVSS	nd / nd / nd	nd	0 of 9
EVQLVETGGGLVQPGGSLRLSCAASGFTLNSYIISWVRQAPGKGPEWVSVIYSDGRRTFYGDSVKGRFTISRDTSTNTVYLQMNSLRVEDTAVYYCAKGRAAITFDSWGQGTLVTVSS	nd / nd / nd	nd	0 of 9
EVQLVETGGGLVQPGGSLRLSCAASLFTLNSYGISWVRQAPGKGPEWVSVIYSDGRRRFYGDNVKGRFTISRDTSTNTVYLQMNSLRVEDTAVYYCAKGRAAGTFDSWGQGTLVTVSS	3.94 / nd / 2.94	3.44	2 of 9 (3.98)
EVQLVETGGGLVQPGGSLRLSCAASNFTLNSYGISWVRQAPGKGPEWVSVIYADGRRTFYGDSVKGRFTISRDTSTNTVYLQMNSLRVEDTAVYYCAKGRAAGVFDSWGQGTLVTVSS	2.09 / 2.18 / 2.33	2.20	1 of 9 (3.27)
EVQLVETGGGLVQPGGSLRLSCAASGFTLNSYGISWVRQAPGKGPEWVSVIDSDGRRTFYGQSVKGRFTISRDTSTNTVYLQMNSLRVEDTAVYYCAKGRAAGTFDSWGQGTLVTVSS	nd / 3.30 / nd	3.30	1 of 9 (5.91)
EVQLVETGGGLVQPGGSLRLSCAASGFTLNSDGISWVRQAPGKGPEWVSVIYPDGRRTFYGDSVKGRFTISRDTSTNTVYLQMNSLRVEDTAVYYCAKGRAAGTFHSWGQGTLVTVSS	nd / nd / nd	nd	0 of 9
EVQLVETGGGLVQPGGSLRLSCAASGFTLNSYGGSWVRQAPGKGPEWVSVIYSDGRRTFLGDSVKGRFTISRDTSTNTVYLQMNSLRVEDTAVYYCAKGRAAGTFDSWGQGTLVTVSS	nd / nd / nd	nd	2 of 9 (3.48)
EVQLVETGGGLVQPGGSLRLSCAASGFTLNSYGIHWVRQAPGKGPEWVSVIYSDGRRPFYGGSVKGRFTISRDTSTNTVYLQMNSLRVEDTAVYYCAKGRAAGTFDSWGQGTLVTVSS	nd / nd / nd	nd	0 of 9
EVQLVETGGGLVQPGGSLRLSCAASGFTLNSYGISWVRQAPGKGPEWVSVIYSDGRRTFYGDSNKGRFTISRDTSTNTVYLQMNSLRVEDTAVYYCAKGRAAGTFDMWGQGTLVTVSS	nd / nd / 4.24	4.24	1 of 9 (3.62)
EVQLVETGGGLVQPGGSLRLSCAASGFTLNSYGISWVRQAPGKGPEWVSVIYSDGRRQFRFDSVKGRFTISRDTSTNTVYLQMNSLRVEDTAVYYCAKGRAAGTFDSWGQGTLVTVSS	3.65 / 5.15 / nd	4.40	1 of 9 (3.93)
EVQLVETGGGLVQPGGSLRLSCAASIFTLNSYGIHWVRQAPGKGPEWVSVIYSDGRRTFVGDSVKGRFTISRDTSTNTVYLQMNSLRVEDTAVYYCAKGRAAGTFDSWGQGTLVTVSS	4.00 / 3.54 / 4.34	3.96	6 of 9 (4.46)
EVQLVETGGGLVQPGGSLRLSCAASGFTCNSYGISWVRQAPGKGPEWVSVIYSDGRRTFYGDSVKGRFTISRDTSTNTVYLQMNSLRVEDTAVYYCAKGRAAGTTDTWGQGTLVTVSS	nd / nd / nd	nd	2 of 9 (4.56)
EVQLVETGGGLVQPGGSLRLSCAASGFTLRSYGISWVRQAPGKGPEWVSAIYSDGRRTFYGDSVKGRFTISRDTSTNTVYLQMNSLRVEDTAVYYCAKGRAAGTFNSWGQGTLVTVSS	nd / nd / nd	nd	0 of 9

Excerpt, the first 2 entries:

VH	replicates, log10 nM	mean, log10 nM	control signals
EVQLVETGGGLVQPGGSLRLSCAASGQTLNSYGISWVRQAPGKGPEWVSVIYSDGRRTFYGDIVKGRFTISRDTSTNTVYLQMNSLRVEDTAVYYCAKGKAAGTFDSWGQGTLVTVSS	5.01 / nd / nd	5.01	1 of 9 (4.05)
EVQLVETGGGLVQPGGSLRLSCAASGFMLNSYGISWVRQAPGKGPEWVSVIYSDGRRTFYGDSVKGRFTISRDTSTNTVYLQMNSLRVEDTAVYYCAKGFAAGTFMSWGQGTLVTVSS	nd / nd / nd	nd	0 of 9